Experimental data published in US20120208182A1, “GENETIC TEST FOR LIVER COPPER ACCUMULATION IN DOGS AND LOW COPPER PET DIET” (priority 2009, published 2012).

Test: Pharmacokinetic study of oral zinc gluconate, plasma zinc by atomic absorption spectrometry
Type: in vivo, Labrador Retrievers
Description: Two unrelated nine-year old, healthy Labrador Retrievers (1 female and 1 male) were used in a pharmacokinetic study. Food was withheld for a 12-hour period prior to oral administration of zinc, and during the initial 6-hour testing period. Water was freely available. Oral zinc gluconate was administered at a dose of 10 mg/kg in dog 1, and at a dose of 5 mg/kg in dog 2. Heparinized blood samples (4 ml) were collected from the jugular vein before dosing (time 0) and 15, 30, 45, 60, 90, 120 minutes, and 4, 8, 12 and 24 hours after application of the drug. Plasma was stored at
−20° C. until analysis for zinc using atomic absorption spectrometry.
Pharmacokinetic parameters (WinNonlin 4.0.1. (Pharsight Corporation, 800 West El Camino Real, Mountain View, Calif., USA) and statistical analysis (SPSS 11.0 for windows, 2001, SPSS Inc., Chicago, Ill., USA) were calculated by use of commercially available software packages. Due to small group sizes a non-parametric statistical test was used for comparison between groups. A Mann-Whitney test was used to detect a difference between hepatic copper concentrations before and after treatment with diet and zinc-gluconate (group-1) at two control examinations (recheck-1 and recheck-2), and after treatment with diet and placebo (group-2) at both control examinations. […]
Pharmacokinetic parameters calculated from plasma zinc concentrations measured in two dogs after oral application of 10 mg/kg (dog 1) and 5 mg/kg (dog 2) elemental zinc were: […]

zinc gluconate
Cl_F: clearance in relation to the bioavailability (Dog 1, 10 mg/kg oral): 2.630773 mL/min/kg
Cmax: maximal clearance (Dog 1, 10 mg/kg oral): 2660 ng/mL
Cl_F: clearance in relation to the bioavailability (Dog 2, 5 mg/kg oral): 1.603 mL/min/kg
Cmax: maximal clearance (Dog 2, 5 mg/kg oral): 1755 ng/mL
calculated half-life t½ (from both dogs): 15.1 h
